According to patent US20170143844A1, “Composition and Methods of Use of Nano Anti-Radical Therapeutics To Inhibit Cancer” (AntiRadical Therapeutics LLC, priority 2015, published 2017):

Assays:
MLM3 = assay: Proliferation of HNSCC cell line MLM3 (colony forming assays and direct cell counting); format: cell-based; conditions: results not shown
Experimental: (§1) We have studied the MCFRN-HSA inhibition of proliferation in head and neck squamous cell carcinoma (HNSCC) cell lines, mEER and MLM3 and have obtained similar results as shown in that of FIG. 1-3 (not shown). MLM3 is of special interest because it is resistant to cisplatin and radiation therapy (CRT) and forms highly metastatic tumors in vivo. The cell lines were analyzed against the effect of CRT treatment, MCFRN-HSA was titrated across the same dose ranges and cell proliferation and survival determined by colony forming assays and direct cell counting as described above. […] Like TNBC, HNSCC has a high incidence rate with nearly 600,000 cases annually worldwide. The incidence of HPV+ HNSCC is increasing and is associated with severe comorbidities. About ˜10% of these cases are resistant to standard therapies, develop metastases, and is an incurable disease. Our results would indicate that MCFRN-HSA is such a potentially new and better treatments for this HNSCC patients.

4T1 breast cancer cells = assay: Colony forming assay in 4T1 cultures; format: cell-based, mouse
Experimental: FIG. 1. Colony forming assays in MCFRN-HSA treated 4T1 cultures. Cells were plated at low density and then treated with the indicated concentration of MCFRN-HSA as a control. Colonies were stained and counted (A) or measured for size (B).
In this study, a TNBC modeling 4T1 breast cancer cells were plated at low density and incubated for 1 week to allow them to form colonies. The cells were treated with a range of MCFRN-HSA concentrations (FIG. 1) and control cells were left untreated or treated with the same concentrations of human serum albumin (HSA).

4T1 tumors = assay: Blood flow in 4T1 tumors by microbubble ultrasound; format: in vivo, Balb/c mice
Experimental: FIG. 4. Measurement of blood flow in 4T1 tumors in mice. Tumor bearing animals were injected with microbubbles and then with MCFRN-HSA and time of tumor perfusion was measured by ultrasound. Lower time is indicative of faster blood flow through tumor.
Reference is now made to FIG. 4: Measurement of blood flow in 4T1 tumors in mice. Tumor bearing animals were injected with microbubbles and then with HAS or MCFRN-HSA and time of tumor perfusion was measured by ultrasound. Lower time is indicative of faster blood flow through tumor.
Specifically, we have tested the effects of MCFRN-HSA on blood flow, Balb/c mice were injected with 4T1 breast cancer cells and tumors were allowed to develop for 8 days. Then tumor diffusion time was analyzed by ultrasound. For this, microbubbles were injected through the tail vein, and a baseline reading of tumor perfusion was obtained. This was followed by MCFRN-HSA or vehicle injection and a second reading of tumor perfusion time. Tumor perfusion was calculated by taking the 30 minute perfusion time minus the baseline time. A shorter time indicates greater perfusion of blood through the tumor.

mEER = assay: Proliferation of HNSCC cell line mEER (colony forming assays and direct cell counting); format: cell-based; conditions: results not shown
Experimental: as §1

cyclin D1 = assay: Cyclin D1 expression by western blotting in 4T1 cells; format: cell-based, mouse; conditions: treated 4T1 cells, western blotting (FIG. 3)
Experimental: FIG. 3. Expression of cyclin D1 in MCFRN-HSA treated 4T1 cells. Cultured 4T1 cells were treated with MCFRN-HSA as indicated and then harvested for western blotting.
Reference is now made to FIG. 3. As an extension of our work showing that MCFRN-HSA inhibits cancer cell proliferation we examined a variety of cell cycle regulatory proteins. […] In summary, MCFRN-HSA appears to have direct effects on cancer cell proliferation. This is associated with reduced cellular ROS levels and the downregulation cyclin D1.

hemorrhagic stroke = assay: Intrathecal injection in rat model of hemorrhagic stroke; format: in vivo; conditions: IT injection in the cerebral spinal fluid
4T1 cells = assay: Cellular ROS levels by DCF staining and flow cytometry; format: cell-based, mouse; conditions: different concentrations, DCF mean fluorescence intensity (FIG. 2)
Experimental: FIG. 2. Effects of MCFRN-HSA on cellular ROS levels. 4T1 cells were treated with MCFRN-HSA as indicated, stained with DCF and analyzed by flow cytometry. Mean fluorescence intensity is shown. Lower fluorescence indicates lower ROS levels.
Reference is now made to FIG. 2. Since the known activity of MCFRN-HSA is the ability to act as a superoxide dismutase mimetic and catalytic agent for ROS removal, we examined its effects on cancer cell ROS levels. Cells were treated with different concentrations of MCFRN-HSA and then cellular ROS levels were estimated by staining with 2′,7′-dichlorodihydro-fluorescein diacetate (DCF) followed by flow cytometry (FIG. 2).

brain cancer = assay: Mouse model of brain cancer; format: in vivo; conditions: administered through IP, results not shown
4T1 mammary tumors = format: in vivo

MCFRN-HSA: Multiple Catalytic Free Radical Nitroxides carried on Human Serum Albumin; HSA covalently labelled with BrAcTPO, 40-60 nitroxides per molecule
anti-proliferation efficacy compared with CRT (MLM3; MLM3 (resistant to CRT), versus cisplatin and radiation therapy): by far more superior than CRT
inhibition of proliferation (MLM3; MLM3 HNSCC cell line): efficacious in inhibiting the proliferation
concentrations at which effects on cell proliferation are observed (4T1 breast cancer cells; 4T1 cells): low micromolar concentrations
number of colonies formed (4T1 breast cancer cells; 4T1 cells plated at low density, 1 week, compared to HSA treated cells (FIG. 1a)): reduced the number of colonies formed
colony size (4T1 breast cancer cells; 4T1 cells plated at low density, 1 week, compared to HSA treated cells (FIG. 1b)): reduced colony size
blood flow to tumors (4T1 tumors; 4T1 tumors in Balb/c mice): significantly increases blood flow
tumor perfusion time (4T1 tumors; 30 minute perfusion time minus baseline, tumors 8 days, versus vehicle (FIG. 4)): shorter than in vehicle treated animals
inhibition of proliferation (mEER; mEER HNSCC cell line): efficacious in inhibiting the proliferation
anti-proliferation efficacy compared with CRT (mEER; mEER, versus cisplatin and radiation therapy (CRT)): by far more superior than CRT
cyclin D1 levels (cyclin D1): decreased
safety and efficacy of intrathecal injection (hemorrhagic stroke): safe and effective
cellular ROS levels (4T1 cells): dose dependent decrease
efficacy in treatment of brain cancer (brain cancer): efficacy in the treatment of mouse model of brain cancer
lung metastatic nodules (4T1 mammary tumors; flank 4T1 tumors, 1 mg/Kg 3 times per week from day 4, without Doxorubicin (FIG. 5a)): robust decrease
growth of primary tumors (4T1 mammary tumors; flank 4T1 tumors, with or without Doxorubicin): no significant difference
lung metastases (4T1 mammary tumors; in the presence of Doxorubicin (FIG. 5b)): significant reduction
